Reference: PubChem BioAssay AID652197 (Broad Institute, 2013)
The list shows a part of the results, in another mix than the full data. Activity calls are given as the source filed them.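 Rule for the calls: active = mean replicate inhibition of at least 30%, or all replicates individually reaching that 30% level; inactive = mean below 30% and not every replicate reaching it.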

Sequences of proteins named here, by UniProt entry; tags and fusion partners are left off.
UniProt Q9NZ08, whole entry: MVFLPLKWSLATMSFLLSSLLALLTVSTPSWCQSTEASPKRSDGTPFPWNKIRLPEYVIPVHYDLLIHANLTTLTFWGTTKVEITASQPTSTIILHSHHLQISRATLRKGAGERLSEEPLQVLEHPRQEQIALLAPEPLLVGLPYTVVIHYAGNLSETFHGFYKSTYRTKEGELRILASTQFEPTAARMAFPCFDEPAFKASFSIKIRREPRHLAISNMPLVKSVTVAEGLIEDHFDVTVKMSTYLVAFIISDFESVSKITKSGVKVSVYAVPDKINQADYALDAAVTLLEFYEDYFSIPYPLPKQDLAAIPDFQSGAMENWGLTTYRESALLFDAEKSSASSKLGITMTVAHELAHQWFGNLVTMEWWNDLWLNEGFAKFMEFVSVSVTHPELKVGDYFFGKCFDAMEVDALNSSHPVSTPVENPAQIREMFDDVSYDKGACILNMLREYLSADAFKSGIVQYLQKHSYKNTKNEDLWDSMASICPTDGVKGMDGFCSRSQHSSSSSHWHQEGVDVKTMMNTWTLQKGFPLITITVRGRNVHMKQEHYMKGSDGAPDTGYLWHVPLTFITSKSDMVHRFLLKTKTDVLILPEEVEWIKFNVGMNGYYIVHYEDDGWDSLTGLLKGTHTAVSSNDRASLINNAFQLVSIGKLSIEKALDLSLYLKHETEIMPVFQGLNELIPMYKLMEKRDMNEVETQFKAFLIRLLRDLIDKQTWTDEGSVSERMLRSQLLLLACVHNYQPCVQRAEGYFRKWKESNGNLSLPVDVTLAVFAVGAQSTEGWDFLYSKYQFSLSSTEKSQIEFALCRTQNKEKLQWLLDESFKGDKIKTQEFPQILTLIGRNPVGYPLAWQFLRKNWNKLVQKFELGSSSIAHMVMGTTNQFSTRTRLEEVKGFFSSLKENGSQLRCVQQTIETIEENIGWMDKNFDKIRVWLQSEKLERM

These molecules were tested against Endoplasmic reticulum aminopeptidase 1 (Homo sapiens) (UniProt Q9NZ08) (assay: inhibition of ERAP1 peptide trimming enzyme – biochemical, single point, plate reader, primary screen (AID 652197;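 note: 0% = neutral control wells and 100% = L-leucinethiol positive control wells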)). Conditions: recombinant ERAP1, Leu-AMC fluorescence, 60 min; at 10.7 µM; stronger effect = higher value.

Row | Structure (SMILES) | inhibition
1 | COc1ccc(C(c2nnnn2C2CCCCC2)N2CCC(n3c(=O)[nH]c4ccccc43)CC2)cc1 (centres undefined) | inactive: 1.66%
2 | Cc1ccccc1NC1(C#N)CCN(Cc2ccccc2)CC1 | inactive: 1.7%
3 | Cn1c(=O)[nH]cc(N(CCCl)CCCl)c1=O | inactive: 2.26%
4 | CN(C)c1ccc(C(=O)NCC2(N3CCCCC3)CCCCC2)cc1 | inactive: -0.435%
5 | O=C(NCC1(N2CCCCC2)CCCCC1)c1ccco1 | inactive: -2.93%
6 | CCC(c1nnnn1C1CCCCC1)N1CCC(n2c(=O)[nH]c3ccccc32)CC1 (centres undefined) | inactive: -3.4%
7 | CC(=O)N(c1ccccc1)C1CCNCC1 | inactive: -4.07%
8 | COc1cccc(C(c2nnnn2C2CCCCC2)N2CCC(n3c(=O)[nH]c4ccccc43)CC2)c1OC (centres undefined) | inactive: -0.92%
9 | COc1cc(OC)cc(C(=O)NCC2(N3CCCCC3)CCCCC2)c1 | inactive: 0.996%
10 | Fc1ccccc1NC1CCN(Cc2ccccc2)CC1 | inactive: -4.71%
11 | Cc1ccc(C(=O)NCC2(N3CCCCC3)CCCCC2)o1 | inactive: -4.24%
12 | Cc1ccc(NC2(C#N)CCN(Cc3ccccc3)CC2)cc1 | inactive: -0.02%
13 | COc1cc(OC)cc(C(=O)NCC2(N3CCOCC3)CCCCC2)c1 | inactive: -1.8%
14 | COc1cccc(C(c2nnnn2C2CCCC2)N2CCC(n3c(=O)[nH]c4ccccc43)CC2)c1OC (centres undefined) | inactive: -3.05%
15 | COc1cccc(C(=O)N(c2cc(C)cc(C)c2)C2CCN(C(=O)OC(C)(C)C)CC2)c1 | inactive: -1.48%
16 | CN1CCC(Nc2ccc(Cl)cc2)CC1 | inactive: -3.09%
17 | CN1CCC(Nc2ccc(F)c(Cl)c2)CC1 | inactive: -0.102%
18 | O=C(O)C1(Nc2ccccc2)CCN(Cc2ccccc2)CC1 | inactive: -10.3%
19 | CC(C)(C)OC(=O)N1CCC(Nc2ccccc2)CC1 | inactive: 1.78%
20 | CCCOc1ccc(C(=O)NCC2(N(C)C)CCCCC2)cc1 | inactive: -1.31%
21 | COc1cccc(C(c2nnnn2C(C)(C)C)N2CCC(n3c(=O)[nH]c4ccccc43)CC2)c1OC (centres undefined) | inactive: -1.69%
22 | CCOC(=O)N1CCC(Nc2ccc(C)cc2)CC1 | inactive: -0.578%
23 | O=c1[nH]c2ccccc2n1C1CCN(C(c2cccs2)c2nnnn2C2CCCC2)CC1 (centres undefined) | inactive: -3.26%

Row | Structure (SMILES) | inhibition
24 | CCCCn1nnnc1C(c1cccc(OC)c1OC)N1CCC(n2c(=O)[nH]c3ccccc32)CC1 (centres undefined) | inactive: 3.49%
25 | COc1cc(C(=O)NCC2(N3CCOCC3)CCCCC2)cc(OC)c1C | inactive: 4.45%
26 | CCCCn1nnnc1C(c1ccccc1)N1CCC(n2c(=O)[nH]c3ccccc32)CC1 (centres undefined) | inactive: -1.36%
27 | O=C(NCC1(N2CCOCC2)CCCCC1)c1cc(Br)ccc1Cl | inactive: -3.21%
28 | O=c1[nH]c2ccccc2n1C1CCN(C(c2cccs2)c2nnnn2C2CCCCC2)CC1 (centres undefined) | inactive: 2.76%
29 | O=c1[nH]c2ccccc2n1C1CCN(C(c2ccnc3ccccc23)c2nnnn2C2CCCC2)CC1 (centres undefined) | inactive: -1.74%
30 | COc1ccc(C(=O)NCC2(N3CCOCC3)CCCCC2)cc1OC | inactive: 0.26%
31 | CN(C)C1(CNC(=O)c2cccc(C#N)c2)CCCCC1 | inactive: 0.829%
32 | Cc1cc(N(CCCl)CCCl)ccc1C=O | inactive: -6.61%
33 | O=c1[nH]c2ccccc2n1C1CCN(C(c2ccccc2)c2nnnn2C2CCCC2)CC1 (centres undefined) | inactive: -1.49%
34 | CCCN1CCC(Nc2cc(OC)cc(OC)c2)CC1 | inactive: 2.28%
35 | C/C(N)=N\P(=O)(Oc1ccccc1)Oc1ccccc1 | inactive: -0.368%
36 | CC(C)(C)OC(=O)N1CCC(N(C(=O)c2ccccc2)c2ccc(Cl)cc2)CC1 | inactive: -0.041%
37 | O=C(NCC1(N2CCCCC2)CCCCC1)c1cccc(C(F)(F)F)c1 | inactive: -3.83%
38 | COc1cc(C(=O)NCC2(N3CCCCC3)CCCCC2)ccc1OC(F)F | inactive: -0.919%
39 | CN1CCN(CCOC(=O)C(O)(c2ccccc2)c2ccccc2)CC1 | inactive: 1.4%
40 | CC(C)c1ccc(C(=O)NCC2(N3CCOCC3)CCCCC2)cc1 | inactive: -3.67%
41 | COc1ccc(NC2CCN(C(=O)OC(C)(C)C)CC2)cc1 | inactive: -0.396%
42 | O=C(NCC1(N2CCCCC2)CCCCC1)c1ccc(OC(F)F)cc1 | inactive: -4.02%
43 | O=c1[nH]c2ccccc2n1C1CCN(C(c2ccccc2OC(F)(F)F)c2nnnn2C2CCCC2)CC1 (centres undefined) | inactive: 0.722%
44 | CCN1CCC(Nc2ccc(Cl)cc2)CC1 | inactive: 2.51%
45 | O=C(NCC1(N2CCCCC2)CCCCC1)c1cccc([N+](=O)[O-])c1 | inactive: -2.92%
46 | CSc1ccc(C(=O)NCC2(N3CCOCC3)CCCCC2)cc1 | inactive: -2.14%

Row | Structure (SMILES) | inhibition
47 | O=C(NCC1(N2CCCCC2)CCCCC1)c1cncc(Br)c1 | inactive: -1.71%
48 | CN1CCC(Nc2cccc(F)c2)CC1 | inactive: 4.19%
49 | COc1ccc(C(c2nnnn2C2CCCC2)N2CCC(n3c(=O)[nH]c4ccccc43)CC2)cc1 (centres undefined) | inactive: -3.12%
50 | CCCOc1ccc(C(=O)NCC2(N(C)C)CCCCC2)cc1OC | inactive: -0.084%
51 | Cc1ccc(C(=O)NCC2(N(C)C)CCCCC2)o1 | inactive: 0.028%
52 | CC(C)c1ccc(NC2CCN(C(=O)OC(C)(C)C)CC2)cc1 | inactive: 2.38%
53 | CN(C)c1cccc(C(=O)NCC2(N3CCCCC3)CCCCC2)c1 | inactive: 1.12%
54 | COc1ccc(CN(CCCl)CCCl)cc1Cl | inactive: -0.387%
55 | O=C(NCC1(N2CCOCC2)CCCCC1)c1cc(F)c(F)cc1Cl | inactive: 0.457%
56 | CCC(c1nnnn1C(C)(C)C)N1CCC(n2c(=O)[nH]c3ccccc32)CC1 (centres undefined) | inactive: -3.48%
57 | COc1cc(OC)c(C(=O)NCC2(N(C)C)CCCCC2)cc1OC | inactive: 1.09%
58 | CCCCn1nnnc1C(c1ccnc2ccccc12)N1CCC(n2c(=O)[nH]c3ccccc32)CC1 (centres undefined) | inactive: -2.89%
59 | Cc1cc(C)cc(N(C(=O)c2ccccc2)C2CCN(C(=O)OC(C)(C)C)CC2)c1 | inactive: 0.177%
60 | O=c1[nH]c2ccccc2n1C1CCN(C(c2ccccc2OC(F)(F)F)c2nnnn2C2CCCCC2)CC1 (centres undefined) | inactive: -1.24%
61 | O=C(NCC1(N2CCCCC2)CCCCC1)c1ccc(Cl)nc1 | inactive: 3.67%
62 | COc1ccc(Cl)cc1C(=O)NCC1(N2CCOCC2)CCCCC1 | inactive: 0.827%
63 | O=C(OC1CN2CCC1CC2)C1c2ccccc2Oc2ccccc21 (centres undefined) | inactive: 1.16%
64 | O=c1[nH]c2ccccc2n1C1CCN(C(c2cc3ccccc3o2)c2nnnn2C2CCCCC2)CC1 (centres undefined) | inactive: 2.45%
65 | O=C(NCC1(N2CCCCC2)CCCCC1)c1ccc(Cl)s1 | inactive: -1.61%
66 | N#CC1(Nc2ccccc2)CCN(Cc2ccccc2)CC1 | inactive: 2.12%
67 | CCCCn1nnnc1C(c1ccc(OC)cc1)N1CCC(n2c(=O)[nH]c3ccccc32)CC1 (centres undefined) | inactive: -3.82%
68 | CCOC(=O)N1CCC(Nc2ccc(OC)cc2)CC1 | inactive: -0.99%
69 | CCC(c1nnnn1C1CCCC1)N1CCC(n2c(=O)[nH]c3ccccc32)CC1 (centres undefined) | inactive: 0.671%

Row | Structure (SMILES) | inhibition
70 | CC(C)(C)OC(=O)N1CCC(N(C(=O)c2ccccc2)c2ccc(F)cc2)CC1 | inactive: -1.44%
71 | COc1ccc(C(=O)NCC2(N3CCCCC3)CCCCC2)c(OC)c1OC | inactive: 5.43%
72 | COc1ccc(C(=O)NCC2(N3CCCCC3)CCCCC2)cc1 | inactive: 1.89%
73 | CCCCn1nnnc1C(c1cccs1)N1CCC(n2c(=O)[nH]c3ccccc32)CC1 (centres undefined) | inactive: -1.03%
74 | O=C(NCC1(N2CCCCC2)CCCCC1)c1cccs1 | inactive: -2.41%
75 | CCCCn1nnnc1C(CC)N1CCC(n2c(=O)[nH]c3ccccc32)CC1 (centres undefined) | inactive: -0.223%
76 | O=C(NCC1(N2CCCCC2)CCCCC1)c1ccc(=O)[nH]c1 | inactive: 0.817%
77 | Cc1cccc(NC2(C#N)CCN(Cc3ccccc3)CC2)c1 | inactive: 1.96%
78 | CSc1ccccc1C(=O)NCC1(N2CCCCC2)CCCCC1 | inactive: 1.92%
79 | O=c1[nH]c2ccccc2n1C1CCN(C(c2ccccc2)c2nnnn2C2CCCCC2)CC1 (centres undefined) | inactive: 2.26%
80 | COc1cc(C(=O)NCC2(N(C)C)CCCCC2)ccc1OC(F)F | inactive: -1.65%
81 | CCOC(=O)N1CCC(Nc2cccc(C)c2)CC1 | inactive: 0.282%
82 | O=C1CCN(Cc2ccccc2)CC1 | inactive: 0.369%
83 | CC(C)(C)n1nnnc1C(c1ccccc1)N1CCC(n2c(=O)[nH]c3ccccc32)CC1 (centres undefined) | inactive: 3.32%
84 | CCOc1ccc(C)cc1CN(CCCl)CCCl | inactive: -1.84%
85 | CCOC(=O)N1CCC(Nc2ccc(F)cc2)CC1 | inactive: -0.18%
86 | O=C(NCC1(N2CCCCC2)CCCCC1)c1ccc(F)cc1 | inactive: -2.29%
87 | CCCCn1nnnc1C(c1cc2ccccc2o1)N1CCC(n2c(=O)[nH]c3ccccc32)CC1 (centres undefined) | inactive: -2.12%
88 | O=P1(N(CCCl)CCCl)SCCCS1 | inactive: -3.35%
89 | CCCCOc1ccc(C(=O)NCC2(N3CCOCC3)CCCCC2)cc1 | inactive: 1.18%
